The target in experiment [1] is PNA (peanut agglutinin, galactose specific lectin) (Arachis hypogaea, UniProt P02872). Description: sugar-lectin binding (agglutination) assay with PNA. The following applies: glycosurfactant 5 mol percent in polymerized DC8,9PC vesicles; phosphate buffer; absorption at 400 nm against time until plateau.
The target of experiment [2] is Con A (glucose specific lectin) (Canavalia ensiformis, UniProt P02866). Kind of experiment: sugar-lectin binding (agglutination) assay with Con A. The following applies: glycosurfactant 5 mol percent in polymerized DC8,9PC vesicles; tris buffer; absorption at 400 nm against time until plateau.

Protein sequences, listed by entry. Tags and fused reporters are not part of them. Lines headed by an entry give the natural chain unless they say otherwise; changes in a name come on top.
UniProt P02872: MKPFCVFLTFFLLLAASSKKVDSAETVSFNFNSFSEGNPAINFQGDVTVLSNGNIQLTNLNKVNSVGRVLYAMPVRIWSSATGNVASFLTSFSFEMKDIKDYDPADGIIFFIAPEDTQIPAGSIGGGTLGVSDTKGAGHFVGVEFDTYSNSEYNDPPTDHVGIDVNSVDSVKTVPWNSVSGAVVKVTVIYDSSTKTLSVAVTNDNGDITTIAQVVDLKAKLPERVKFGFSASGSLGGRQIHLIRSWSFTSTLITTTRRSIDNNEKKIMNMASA
UniProt P02866: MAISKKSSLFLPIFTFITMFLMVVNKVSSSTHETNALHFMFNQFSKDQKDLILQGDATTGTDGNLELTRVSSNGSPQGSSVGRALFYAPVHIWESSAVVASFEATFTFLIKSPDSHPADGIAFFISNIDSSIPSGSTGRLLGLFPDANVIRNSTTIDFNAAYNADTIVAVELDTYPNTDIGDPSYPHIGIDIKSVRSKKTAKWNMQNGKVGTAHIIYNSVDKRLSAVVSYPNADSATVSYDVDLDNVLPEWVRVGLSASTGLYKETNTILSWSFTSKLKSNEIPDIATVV

Regarding N-octadecyl lactobionamide, the “binding affinity (agglutination) to PNA” value in experiment [1] was “a binding affinity”. Moreover, the “binding affinity (agglutination) to Con A” value in experiment [2] is reported as “negative affinity”.

For N-octadecyl maltobionamide, the “binding affinity (agglutination) to PNA” value in experiment [1] is given as “negative affinity”. For the same substance, the “binding affinity (agglutination) to Con A” value in experiment [2] is reported as “a binding affinity”.

The values are drawn from patent publication US6541270B2, “Method, detector, and apparatus for colorimetric detection of chemical and biological agents” (dated 2003).
